From PubChem BioAssay AID2599 (Sanford-Burnham Center for Chemical Genomics, 2010) come the findings set out here.

By UniProt entry, the sequences of proteins in these tests, tags left out. Residues count along the entry.
UniProt Q9GZR1, 628-1112 limits assumed: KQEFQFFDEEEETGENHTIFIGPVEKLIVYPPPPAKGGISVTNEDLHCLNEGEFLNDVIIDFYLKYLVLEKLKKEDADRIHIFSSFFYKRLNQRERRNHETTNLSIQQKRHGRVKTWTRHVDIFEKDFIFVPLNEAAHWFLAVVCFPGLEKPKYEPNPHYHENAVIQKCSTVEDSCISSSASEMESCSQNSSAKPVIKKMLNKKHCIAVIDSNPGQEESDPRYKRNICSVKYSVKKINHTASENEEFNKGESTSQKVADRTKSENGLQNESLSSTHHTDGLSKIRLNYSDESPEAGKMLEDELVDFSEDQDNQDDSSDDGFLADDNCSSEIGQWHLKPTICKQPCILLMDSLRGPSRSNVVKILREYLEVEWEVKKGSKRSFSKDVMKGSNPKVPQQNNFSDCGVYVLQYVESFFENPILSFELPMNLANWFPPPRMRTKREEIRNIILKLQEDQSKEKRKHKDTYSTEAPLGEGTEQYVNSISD

This is a selection; strong and weak results do not stand in their true shares. Activity calls are given as the source filed them.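 Rule for the calls: active = inhibition above about 50% at the single tested dose (limit read from the data); inactive = the rest.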

In the experiment the target is Sentrin-specific protease 6 (Homo sapiens) (UniProt Q9GZR1). Put plainly: inhibition of human SENP6 catalytic domain – biochemical, luminescence, uHTS, primary screen (AID 2599).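 Note: plate controls were DMSO wells with enzyme for no effect and DMSO wells lacking enzyme for full effect.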 The settings on record: Recombinant SENP6 catalytic domain, aminoluciferin luminescence; at 10 µM; active compounds read high.
For orientation: inhibition means the change of the read-out against control, counted positive when it falls. For `COc1ccccc1OP(C)(=O)Nc1cccc(Br)c1` (stereo unspecified), the inhibition was inactive: -10.2%.

As for `CCOC(=O)c1ccc(NP(C)(=O)Oc2cc(C)cc(C)c2)cc1` (stereo unspecified), the inhibition is inactive: 15.5%.

`Cc1cc(C)cc(OP(C)(=O)Nc2ccc(C)cc2C)c1` (stereo unspecified): the inhibition was inactive: -15.9%.

In the case of `Cc1ccc(C)c(NP(C)(=O)Oc2ccccc2)c1` (stereo unspecified), the inhibition was inactive: -0.479%.

For `Cc1cc(C)cc(OP(C)(=O)Nc2ccccn2)c1` (stereo unspecified), the inhibition was inactive: -1.59%.

For `CP(=O)(Nc1cccc(Br)c1)Oc1ccccc1` (stereo unspecified), the inhibition is inactive: 6.54%.

For `O=C(O)c1cccc(Nc2c([N+](=O)[O-])cc([N+](=O)[O-])cc2[N+](=O)[O-])c1`, the inhibition is inactive: 5.27%.

Regarding `CC1=NCCc2c1[nH]c1ccccc21.O=[N+]([O-])c1cc([N+](=O)[O-])c(O)c([N+](=O)[O-])c1`, the inhibition was inactive: 8.36%.

Take `CCOC(=O)C(CC)C1=NC(C)(C)Cc2ccccc21.O=[N+]([O-])c1cc([N+](=O)[O-])c(O)c([N+](=O)[O-])c1` (stereo unspecified): the inhibition was inactive: 10.8%.

In the case of `CC1=C2N=C(C=C3N=C(C(C)=C4[N-][C@@](C)([C@@H]5N=C1[C@](C)(CCC(=O)NC[C@@H](C)OP(=O)([O-])O[C@H]1[C@@H](O)[C@@H](n6cnc7cc(C)c(C)cc76)O[C@@H]1CO)[C@H]5CC(N)=O)[C@@](C)(CC(N)=O)[C@@H]4CCC(N)=O)[C@@](C)(CC(N)=O)[C@@H]3CCC(N)=O)C(C)(C)[C@@H]2CCC(N)=O.[C-]#N.[Co+3]`, the inhibition was active: 58.8%.

`O=[N+]([O-])c1cc([N+](=O)[O-])c(Nc2nnnn2CCO)c([N+](=O)[O-])c1`: the inhibition was inactive: -0.469%.

Turning to `COc1ccccc1OP(C)(=O)Nc1c(C)cccc1C` (stereo unspecified), the inhibition is inactive: -10.2%.

For the compound `CN1CCCCC1COC(=O)C1(O)c2ccccc2CCc2ccccc21` (stereo unspecified), the inhibition was inactive: -5.66%.

`CCCOc1ccc(NP(C)(=O)Oc2ccc(Cl)cc2)cc1` (stereo unspecified): the inhibition is inactive: -15.5%.

Consider `CP(=O)(Nc1ccc(SC(F)(F)F)cc1)Oc1ccccc1` (stereo unspecified), for which the inhibition was inactive: -2.86%.

`O=[N+]([O-])c1cc([N+](=O)[O-])c(-n2nnc3ccccc32)c([N+](=O)[O-])c1`: the inhibition is inactive: 11.1%.

On to `O=[N+]([O-])c1cc([N+](=O)[O-])c(-c2cnn(-c3ccccc3)c2)c([N+](=O)[O-])c1`, for which the inhibition is inactive: 18.2%.

For the compound `Cc1nc2ccc3ccccc3c2s1.O=[N+]([O-])c1cc([N+](=O)[O-])c(O)c([N+](=O)[O-])c1`, the inhibition is inactive: -22.8%.

With `CP(=O)(Oc1ccccc1)OC(c1ccccc1)C(F)(F)F` (stereo unspecified), the inhibition was inactive: -1.2%.

Take `Cc1cccc(C)c1OP(C)(=O)Nc1ccc(SC(F)(F)F)cc1` (stereo unspecified): the inhibition is inactive: -15.6%.

In the case of `CP(=O)(Nc1ccc(SC(F)(F)F)cc1)Oc1ccc(Cl)cc1` (stereo unspecified), the inhibition is inactive: -54%.

As for `Cc1cc(C)cc(OP(C)(=O)Nc2ccc(SC(F)(F)F)cc2)c1` (stereo unspecified), the inhibition was inactive: -2.37%.

In the case of `CP(=O)(NC(=O)Nc1ccccc1)Oc1ccccc1` (stereo unspecified), the inhibition was inactive: -6.52%.

As for `CCc1ccc(OP(C)(=O)N2CCN(c3ccc([N+](=O)[O-])cc3)CC2)cc1` (stereo unspecified), the inhibition is inactive: 0.575%.

On to `CCOC(=O)c1ccc(NP(C)(=O)Oc2ccc(OC)cc2)cc1` (stereo unspecified), for which the inhibition was inactive: -5.98%.

As to `O=[N+]([O-])c1cc([N+](=O)[O-])c(O)c([N+](=O)[O-])c1.c1ccc(Oc2ccncc2)cc1`, the inhibition is inactive: -4.33%.

On to `CCOP(C)(=S)SCC(=O)NC(C)C(=O)O` (stereo unspecified), for which the inhibition was inactive: -6%.

Take `CP(=O)(Nc1ccccn1)Oc1ccc(Cl)cc1` (stereo unspecified): the inhibition is inactive: 2.44%.

As for `CP(=S)(Nn1cnnc1)Oc1ccccc1` (stereo unspecified), the inhibition is inactive: -4.19%.

As for `CP(=O)(Nc1ccccc1Br)Oc1ccccc1` (stereo unspecified), the inhibition is inactive: -9.95%.

`COc1ccccc1OP(C)(=O)Nc1ccccc1` (stereo unspecified): the inhibition is inactive: -12.3%.

For the compound `O=[N+]([O-])c1cc([N+](=O)[O-])c(Nc2cccnc2)c([N+](=O)[O-])c1`, the inhibition was inactive: 12%.

On to `Cc1cccc(C)c1OP(C)(N)=O` (stereo unspecified), for which the inhibition was inactive: 9.37%.

With `CC(C)(C)c1ccc(OP(C)(=O)Nc2ccc(SC(F)(F)F)cc2)cc1` (stereo unspecified), the inhibition was inactive: -22.3%.

As for `Cc1ccc(NP(C)(=O)Oc2ccccc2)c(C)c1` (stereo unspecified), the inhibition is inactive: 3.61%.

As for `COc1ccccc1OP(C)(=O)Nc1ccc(C)cc1` (stereo unspecified), the inhibition was inactive: -4.6%.

`CCOC(=O)c1ccc(NP(C)(=O)Oc2ccccc2)cc1` (stereo unspecified): the inhibition was inactive: -9.73%.

Consider `Cc1cc(C)cc(OP(C)(N)=O)c1` (stereo unspecified), for which the inhibition is inactive: 1.02%.

As to `COc1ccc(OP(C)(=O)Nc2cccc(F)c2)cc1` (stereo unspecified), the inhibition was inactive: -1.84%.

In the case of `COc1ccccc1OP(C)(=O)Nc1cc(Cl)ccc1C` (stereo unspecified), the inhibition is inactive: -11.4%.

As for `CCN(CC)CCCOC(=O)C(O)(c1ccccc1)c1ccccc1`, the inhibition was inactive: -0.788%.

As to `COc1ccccc1OP(C)(=O)Nc1ccc(Br)cc1` (stereo unspecified), the inhibition is inactive: -29%.

In the case of `COc1ccc(OP(C)(=O)Nc2ccccn2)cc1` (stereo unspecified), the inhibition was inactive: -31%.

For `CN(C)CCOC(=O)C(O)(c1ccccc1)C1CCCC1` (stereo unspecified), the inhibition is inactive: 9.14%.

Consider `Cc1c(NP(C)(=O)Oc2ccc(C(C)C)cc2)c(=O)n(-c2ccccc2)n1C` (stereo unspecified), for which the inhibition was inactive: 2.21%.

As to `O=[N+]([O-])c1cc([N+](=O)[O-])c(Nc2ccccn2)c([N+](=O)[O-])c1`, the inhibition was inactive: 33.5%.

With `COc1ccccc1OP(C)(=O)Nc1ccc(C)cc1C` (stereo unspecified), the inhibition was inactive: 26.8%.

For `CP(=O)(Nc1ccccn1)Oc1ccccc1` (stereo unspecified), the inhibition was inactive: 8.07%.

As to `CCc1ccc(OP(C)(=O)O)cc1`, the inhibition was inactive: 6.83%.

Consider `Cc1cc(C)cc(OP(C)(=O)Nc2cccc(C(F)(F)F)c2)c1` (stereo unspecified), for which the inhibition is inactive: 12.1%.

Regarding `COc1ccccc1OP(C)(=O)Nc1ccc(C)c(C)c1` (stereo unspecified), the inhibition is inactive: -16.2%.

Regarding `COc1ccc(OP(C)(=O)Nc2ccccc2Br)cc1` (stereo unspecified), the inhibition is inactive: -0.379%.

As for `Cc1nc2ccc3ccccc3c2o1.O=[N+]([O-])c1cc([N+](=O)[O-])c(O)c([N+](=O)[O-])c1`, the inhibition was inactive: -3.95%.

In the case of `CP(=O)(Nc1ccc(Cl)cc1Cl)Oc1ccccc1` (stereo unspecified), the inhibition was inactive: 1.75%.

On to `CP(=O)(OCCOc1ccccc1)OCCOc1ccccc1`, for which the inhibition was inactive: 7.79%.

Consider `Nc1ccc2c(ccc3cccnc32)n1.O=[N+]([O-])c1cc([N+](=O)[O-])c(O)c([N+](=O)[O-])c1`, for which the inhibition is inactive: -17.2%.
